According to US20050169994A1, “Carvedilol free base, salts, anhydrous forms or solvates thereof, corresponding pharmaceutical compositions, controlled release formulations, and treatment or delivery methods” (priority 2003, published 2005):

Assay: Solubility in water at 25° C. over time, with pH of filtered solution
Details: for solubility in water: room temperature

For “Carvedilol Monocitrate Monohydrate [Carvedilol Mono-Citrate Salt]”, the “pH value when dissolved in water” value was ~3, the “Aqueous Solubility” value (Table 11, 25° C., 1 hr) was 1.63 mg of carvedilol free base/mL of solution and the “Aqueous Solubility” value (Table 11, 25° C., 4 hr) was 1.47 mg of carvedilol free base/mL of solution. For the same substance, the “Aqueous Solubility” value (Table 11, 25° C., 24 hr) was 1.07 mg of carvedilol free base/mL of solution, the “Aqueous Solubility” value (Table 11, 25° C., 48 hr) was 1.02 mg of carvedilol free base/mL of solution and the “pH of filtered solution” value (Table 11, 1 hr) was 3.5. For the same substance, the “pH of filtered solution” value (Table 11, 4 hr) was 3.4, the “pH of filtered solution” value (Table 11, 24 hr) was 3.0 and the “Aqueous Solubility” value (Table 13, 25° C., 1 hr) was 1.64 mg of Carvedilol free base/mL of solution. For the same substance, the “Aqueous Solubility” value (Table 13, 25° C., 4 hr) was 1.74 mg of Carvedilol free base/mL of solution, the “Aqueous Solubility” value (Table 13, 25° C., 24 hr) was 1.46 mg of Carvedilol free base/mL of solution and the pH of solution (Table 13, 1 hr) was 3.3. For the same substance, the pH of solution (Table 13, 4 hr) was 3.2, the pH of solution (Table 13, 24 hr) was 3.2 and the “aqueous solubility compared with free base” value (in words) was “much better aqueous solubility than the free base”. The solubility in water (1 hour) was 1630 µg/mL and the solubility in water (48 hour) was 1020 µg/mL.
